What was measured:
[1] = molecular target: cation-independent mannose 6-phosphate receptor (CI-MPR); test: CI-MPR plate binding assay (96-well plate coated with CI-MPR, bound GAA activity measured)
[2] = molecular target: cation-independent mannose 6-phosphate receptor (CI-MPR); test: CI-MPR (M6P receptor) affinity chromatography; GAA activity (F460) of the fractions; peak before M6P is added
[3] = molecular target: cation-independent mannose 6-phosphate receptor (CI-MPR); test: CI-MPR (M6P receptor) affinity chromatography; GAA activity (F460) of the fractions; elution with an M6P gradient

alglucosidase-alfa (from UniProt P10253 57-952) (enzyme)
EC50 (read off the curve) [1]: 4 nM
percent of GAA activity not bound to the M6P receptor column, flow-through peak (rhGAA lacks M6P) [2]: 73%
percent of GAA activity bound to the M6P receptor column and eluted with M6P (rhGAA contains M6P) [3]: 27%

Source: patent US11491243
